Measurements as given in PubChem BioAssay AID624202 (National Center for Advancing Translational Sciences (NCATS), 2012).
Only a part is listed here, and it is no random draw. Activity calls are given as the source filed them. Calls follow the shape of the dose curve; as a rule, active = well fitted activation curve with a large enough effect; inconclusive = small, poorly fitted or top-dose-only effect; inactive = no such curve, though single readings can be large or run the other way.

Test: qHTS Assay to Identify Small Molecule Activators of BRCA1 Expression; also: nearly all actives have a fitted effect of over 80% in size
Conditions: MCF7-BRCA1-FFLuc reporter, luminescence, 48 h, scaled: vehicle 0%, 10 µM genistein 100%; at 46.1 µM (top of the series) unless noted

SMILES | activation
O=Cc1ccc(NCCCl)cc1 | inactive: -4.57%
COc1cc(I)ccc1[As](=O)(O)O | inactive: 30.4%
COc1ccc2nc(NP(=O)(c3ccccc3)c3ccccc3)sc2c1 | inactive: -35.6%
O=P1(N(CCCl)CCCl)OCCCN1CCCl (centres undefined) | inactive: 15.1%
O=P1(N(CCCl)CCCl)Nc2ccccc2N1 | inactive: 3.71%
Cc1cc(=O)[nH]c(N[N+](=O)[O-])n1 | inactive: -0.376%
O=C(OC1CN2CCC1CC2)C12CC3CC(CC(C3)C1)C2 (centres undefined) | inactive: -1.18%
Cc1c2c(nc3ccccc13)SC(C(Cl)Cl)C2 (centres undefined) | inactive: 22.6%
COc1ccc(N/C(=N/P(=O)(N2CCOCC2)N2CCOCC2)N2CCOCC2)cc1 | inactive: -14.4%
O=[N+]([O-])c1cc(Oc2ccc([N+](=O)[O-])cc2C(F)(F)F)cc([N+](=O)[O-])c1 | inactive: -49.4%
O=C(Nc1ccncc1[N+](=O)[O-])c1ccc([N+](=O)[O-])cc1[N+](=O)[O-] | inactive: -21.6%
O=C(COc1ccccc1)OC1CN2CCC1CC2 (centres undefined) | inactive: 16.8%
O=C(O)C(=O)c1ccc(N(CCCl)CCCl)cc1 | inactive: 9.08%
COC(=O)C1(C)COP(=O)(N2CCCC2)OC1 (centres undefined) | inactive: 14.4%
COP1(=S)c2c(C)nn(CCC#N)c2N=C(c2ccc(F)cc2)N1C (centres undefined) | inactive: 3.77%
CCOP(=O)(Nc1cccc2cccnc12)OCC | inactive: 11.5%
CCC(C)N(CC(C)C)C(=S)SC(NC(C)=O)C(Cl)(Cl)Cl (centres undefined) | inactive: -44.5%
CCOC(=O)c1ccc(NC(=O)C(C)(CCl)SC)cc1 (centres undefined) | inactive: 0%
CSc1ccc(Nc2c([N+](=O)[O-])cc([N+](=O)[O-])cc2[N+](=O)[O-])cc1 | inactive: -60.6%
O=C(OC1CN2CCC1CC2)c1cccc([N+](=O)[O-])c1 (centres undefined) | inactive: -1.37%
Cc1cc(SC(NC(=O)c2ccccc2)C(Cl)(Cl)Cl)nc(C(C)C)n1 (centres undefined) | inactive: -20.5%
CCCCOc1ccc(C(=O)NCC2(N3CCCCC3)CCCCC2)cc1OC | inactive: -72.1%
COP(=O)(OC)N1CC1c1ccccc1 (centres undefined) | inactive: 7.79%
CC1CCNP(=O)(N(CCCl)CCCl)O1 (centres undefined) | inactive: 0.93%
O=C(O)C(O)c1ccc(N(CCCl)CCCl)cc1 (centres undefined) | inactive: 2.98%
CCOC(=O)Nc1ccc([As](=O)(O)O)c(O)c1 | inactive: -0.99%
O=[N+]([O-])c1ccc(Nc2ccc(Oc3ccc([N+](=O)[O-])cc3[N+](=O)[O-])cc2)c([N+](=O)[O-])c1 | inactive: -6.63%

SMILES | activation
Cc1cc(SC(NC=O)C(Cl)(Cl)Cl)ncn1 (centres undefined) | inactive: 3.16%
O=P(Nc1ccccn1)(c1cccc2ccccc12)c1cccc2ccccc12 | inactive: -25.1%
CCOC(=O)Nc1cccc([As](=O)(O)O)c1 | inactive: -19%
CCCC1OP(=O)(Nc2ccccc2)OCC1CC (centres undefined) | inactive: -5.45%
O=C(/C=C/c1ccccc1)OC1CN2CCC1CC2 (centres undefined) | inactive: 29.8%
CN(C)C1(CNC(=O)c2ccc(S(C)(=O)=O)cc2)CCCCC1 | inactive: -3.15%
Cc1ccc(C(=O)OC2CN3CCC2CC3)cc1 (centres undefined) | inactive: 11.6%
CC1CCC(C(C)C)C(OP(=O)(Nc2ccccn2)c2ccccc2)C1 (centres undefined) | inactive: -67.6%
COc1cc([N+](=O)[O-])ccc1[N+](=O)[O-] | inactive: -19.6%
Cc1nn(-c2ccccc2)c2c1P(=O)(N1CCOCC1)N(C)C(c1ccccc1)=N2 (centres undefined) | inactive: 1.39%
Cc1ccc(OCC(=O)OC2CN3CCC2CC3)cc1 (centres undefined) | inactive: -10.8%
O=[As](O)(c1cccs1)c1cccs1 | inactive: 0.0828%
NS(=O)(=O)c1cccc(NC(=O)COC(=O)C(O)(c2ccccc2)c2ccccc2)c1 | inactive: -15.9%
O=P1(Nc2ccc(Br)cn2)COc2ccccc2OC1 | inactive: -7.45%
Nc1cccc([As](=O)(O)c2ccccc2)c1 | inactive: 20.4%
O=P1(Nc2ncccn2)COc2ccccc2OC1 | inactive: -8.84%
Cc1ccc(S(=O)(=O)N(CCCN)CCCc2c(C)nc(N)[nH]c2=O)cc1 | inactive: -4%
CC(C)(C)C(=O)NC(Sc1ncccn1)C(Cl)(Cl)Cl (centres undefined) | inactive: 22%
Clc1n[nH]nc1-c1nn[nH][15n]1 | inactive: -1.95% [at 1.84 µM]
O=P1(N(CCCl)CCCl)NCCC(C(F)(F)F)O1 (centres undefined) | inactive: 7.5%
CCOP(=O)(Nc1ccc(C)cn1)OCC | inactive: 1.64%
CN(CCCl)Cc1cc(Cl)c(NC2=NCCN2)c(Cl)c1 | inactive: 0%
CCOP(=O)(NC(=NC(C)c1ccccc1)NC(C)c1ccccc1)OCC (centres undefined) | inactive: -42.7%
CCC1=CC2Cc3nc4ccc(Cl)cc4c(N)c3C(C1)C2 (centres undefined) | inactive: -63%
O=P1(Nc2ccccn2)COc2ccccc2OC1 | inactive: 13.3%
CC1(CBr)Cn2c(nc3ccccc3c2=O)S1 (centres undefined) | inactive: 3.48%
CN(C(=O)Cc1ccc(Cl)c(Cl)c1)[C@@H]1CCCC[C@H]1N1CCCC1 | inactive: 0%

SMILES | activation
CC(C)/C=N\N=C(\N)N[N+](=O)[O-] | inactive: -3.22%
COc1ccccc1CNC(=O)COC(=O)C(O)(c1ccccc1)c1ccccc1 | inactive: -11.3%
Cc1cccc(OCC(=O)OC2CN3CCC2CC3)c1 (centres undefined) | inactive: -2.14%
O=[As](O)(c1cccc(O)c1)c1cccc(O)c1 | inactive: -0.63%
CS(=O)(=O)c1ccc(Cl)c(NC(=O)COC(=O)C(O)(c2ccccc2)c2ccccc2)c1 | inactive: -21.3%
O=[As](O)(O)c1cccnc1 | inactive: 17.9%
COc1cc(C(=O)NCC2(N3CCOCC3)CCCCC2)cc(Cl)c1OC(C)C | inactive: -27.5%
O=C(OC1CN2CCC1CC2)c1ccc(Cl)cc1 (centres undefined) | inactive: -0.167%
CCOP(=O)(Nc1cccc2ccccc12)OCC | inactive: -0.87%
COc1cc(C2NCCC3(OCCO3)C2(C)C)cc(OC)c1OC (centres undefined) | inactive: 14%
CCCOP(=S)(Nc1nc(N)cc(=O)[nH]1)OCCC | inactive: 19.3%
Cc1ccc(NCCc2c([N+](=O)[O-])cc([N+](=O)[O-])cc2[N+](=O)[O-])cc1 | inactive: -32.4%
Nc1cccc2c([As](=O)(O)O)cccc12 | inactive: 0.358%
O=C(O)COc1ccc([As](=O)(O)O)cc1[N+](=O)[O-] | inactive: -2.5%
Nc1ccccc1[As](=O)(O)c1ccccc1 | inactive: 11.4%
CS(=O)(=O)c1cc([N+](=O)[O-])c2no[n+]([O-])c2c1 | inactive: -44.6%
O=P(Nc1nccs1)(Oc1ccccc1)Oc1ccccc1 | inactive: 0.447%
O=P(Nc1nccs1)(c1ccccc1)c1nc2ccccc2s1 (centres undefined) | inactive: -55%
CCOP1(=S)c2c(C)nn(CCC#N)c2N=C(c2ccccc2F)N1C (centres undefined) | inactive: 2.16%
CN(C(=O)Cc1ccc(Cl)c(Cl)c1)[C@H]1CC[C@@]2(CCCO2)C[C@@H]1N1CCCC1 | inactive: 14.3%
O=[N+]([O-])c1ccc2c(c1)nnn2O | inactive: -0.489%
CN(C)C(=O)c1cc([N+](=O)[O-])cc2c1-c1c(cc([N+](=O)[O-])cc1[N+](=O)[O-])C2=O | inactive: -90.6%
CCOP1(=S)c2c(C)nn(CCC#N)c2N=C(c2ccc(F)cc2)N1C (centres undefined) | inactive: -1.4%
CN(C(=O)Cc1ccccc1)[C@@H]1CC[C@]2(CCCO2)C[C@H]1N1CCCC1 | inactive: 23.1%
N#CCCN(C(=O)COC(=O)C(O)(c1ccccc1)c1ccccc1)c1ccc(F)cc1 | inactive: -29.2%
